Here are results for 1 molecule from ChEMBL document CHEMBL3045492, “Regioselective synthesis of novel 3-alkoxy (phenyl) thiophosphorylamido-2-(per-O-acetylglycosyl-1'-imino)thiazolidine-4-one derivatives from O-alkyl N4-glycosyl(thiosemicarbazido)phosphonothioates” (2009).

This test deals with Brassica rapa subsp. oleifera. Nature of the test: Herbicidal activity against Brassica rapa subsp. oleifera assessed as growth inhibition at 1.5 kg/ha relative to control.

Consider `COP(=S)(NN1C(=O)CS/C1=N/[C@@H]1O[C@H](COC(C)=O)[C@@H](OC(C)=O)[C@H](OC(C)=O)[C@H]1OC(C)=O)c1ccccc1` (stereo partly specified), for which the growth inhibition (GI) came out at 62.7%.
